Target: GFP-CB1R (Mus musculus, UniProt P47746)
Details: pretreatment with unlabeled antagonist

The chains behind the UniProt entries cited, without tags or fusion partners.
UniProt P47746, whole entry: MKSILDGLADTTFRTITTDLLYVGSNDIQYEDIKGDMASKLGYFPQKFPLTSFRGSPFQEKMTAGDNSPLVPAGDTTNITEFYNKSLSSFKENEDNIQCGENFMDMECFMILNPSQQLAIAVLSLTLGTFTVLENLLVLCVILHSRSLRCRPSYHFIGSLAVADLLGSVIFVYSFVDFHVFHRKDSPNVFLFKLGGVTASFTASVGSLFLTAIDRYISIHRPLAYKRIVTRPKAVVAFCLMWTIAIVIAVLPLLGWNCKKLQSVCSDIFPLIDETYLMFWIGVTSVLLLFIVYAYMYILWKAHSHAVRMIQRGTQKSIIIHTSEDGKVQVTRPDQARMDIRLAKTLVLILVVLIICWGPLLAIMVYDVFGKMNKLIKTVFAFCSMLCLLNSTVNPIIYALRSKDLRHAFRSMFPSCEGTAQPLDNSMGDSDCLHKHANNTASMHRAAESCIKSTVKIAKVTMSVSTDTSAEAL

`Cc1c(C(=O)NN2CCCCC2)nn(-c2ccc(Cl)cc2Cl)c1-c1ccc(Cl)cc1` [rimonabant] was tested, and the “effect on fluo-cannabinoid binding” value was “completely prevented”.

Source: PMC8586358 (Nature Communications, 2021)
